Legend:
[1] = target: recombinant human TRβ (Homo sapiens, UniProt P10828)
[2] = target: recombinant human TRα (Homo sapiens, UniProt P10827)

The chains behind the UniProt entries cited, without tags or fusion partners. Residues count along the entry.
UniProt P10828, 244-461 limits assumed: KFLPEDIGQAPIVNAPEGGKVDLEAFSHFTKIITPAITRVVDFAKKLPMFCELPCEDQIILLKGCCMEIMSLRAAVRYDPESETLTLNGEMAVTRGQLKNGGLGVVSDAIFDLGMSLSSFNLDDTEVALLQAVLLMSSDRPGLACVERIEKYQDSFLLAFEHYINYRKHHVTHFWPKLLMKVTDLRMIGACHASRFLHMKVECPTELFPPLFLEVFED
UniProt P10827, 190-410 isoform 2 limits assumed: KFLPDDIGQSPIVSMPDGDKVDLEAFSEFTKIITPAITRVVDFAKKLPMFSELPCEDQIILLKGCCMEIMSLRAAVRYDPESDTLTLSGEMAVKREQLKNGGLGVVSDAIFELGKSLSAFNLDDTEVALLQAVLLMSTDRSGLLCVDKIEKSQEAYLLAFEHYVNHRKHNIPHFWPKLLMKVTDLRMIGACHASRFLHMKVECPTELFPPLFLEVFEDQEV

Q: With CCOC(=O)C(=O)Nc1ccc2c(ccn2Cc2ccc(O)c(C(C)C)c2)c1 as the molecule, how does the IC50 [1] read?
A: Its IC50 is 350 nM.

Q: And the IC50 [2]?
A: Its IC50 is 980 nM.

Q: Which results are given for Cc1ccc(NC(=O)CC(=O)O)c2c1N(Cc1ccc(O)c(C(C)C)c1)C(C)C2 (racemic)?
A: IC50 [1]: 610 nM; IC50 [2]: > 10000 nM
